Drawing on patent US7056935B2, “Rotamase enzyme activity inhibitors” (GPI NIL Holdings, Inc., priority 1995, dated 2006), this text covers Ki for one compound.

Chains of the proteins cited; added tags and fusions are not shown.
UniProt P62942, whole entry: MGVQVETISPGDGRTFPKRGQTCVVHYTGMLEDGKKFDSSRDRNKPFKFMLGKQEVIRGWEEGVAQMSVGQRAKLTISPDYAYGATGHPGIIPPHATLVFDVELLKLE

This assay concerns the target FKBP (Homo sapiens, UniProt P62942). The experiment in a line: Ki test procedure: inhibition of peptidyl-prolyl isomerase (rotamase) activity, chymotrypsin-coupled assay. The class given is biochemical. The following applies: apparent Ki, substrate N-succinyl-Ala-Phe-Pro-Phe-p-nitroanilide, Table II.

As to `COc1cc(C(=O)C(=O)N2CCCCC2C(=O)OC(CCCc2ccccc2)CCc2cccnc2)cc(OC)c1OC` [Compound 30, 1-Phenyl-6-(3-pyridyl)-3-hexyl (S)-N-(3,4,5-trimethoxyphenylglyoxyl)pipecolate], the Ki came to 3 nM.
